Legend:
mouse PPAR α = mouse PPAR α (Mus musculus, UniProt P23204); assay: PPAR α transactivation (GAL4 chimeric receptor luciferase reporter) assay; settings: read-out: Gene Activation Assay: EC50 (≦10 μM) PPAR alpha, pFR-Luc reporter, HEK293T cells, 20 hours incubation
Source text: (§1) Chimeric receptors were constructed in which the yeast transcription factor GAL4 DNA binding domain was fused to the ligand binding domain of either mouse PPARγ, mouse PPAR δ or mouse PPAR α in order to assess the ability of the compounds of the present invention to activate gene expression in a PPAR-dependent manner. The chimeric receptor expression plasmids (GAL4-mPPARγ, GAL4-mPPAR δ and GAL4-PPAR α) and the reporter plasmid containing 5×GAL4 binding site (pFR-Luc, obtained from Stratagene) were transfected into HEK293T cells using the Lipofectamine 2000 reagent (Invitrogen), according to the manufacturers instructions. Six hours after transfection, the culture medium was renewed and the cells were incubated for 20 hours in presence of either 1) DMSO (vehicle), 2) a compound of the invention or 3) a reference compound for comparison. Rosiglitazone (obtained from WDF Pharma) was used as a reference compound for the PPARγ assay; GW501516 (prepared as described in Sznaidman et al. Bioorg. Med. Chem. Lett. (2003) 13:1517-1521) was used as a reference compound for the PPAR δ assay and GW7647 (obtained from Sigma) was used as a reference compound for the PPAR α assay. Luciferase activity was measured as a reporter of gene expression. Luciferase activity on the cell lysates using the Steady-Glo reagent was measured according to the manufacturers instructions.

Sequences of proteins named here, by UniProt entry; tags and fusion partners are left off. A change or cut given only in a name is not applied to a line headed by its entry. Residues count along the entry.
UniProt P23204, 239-466 limits assumed: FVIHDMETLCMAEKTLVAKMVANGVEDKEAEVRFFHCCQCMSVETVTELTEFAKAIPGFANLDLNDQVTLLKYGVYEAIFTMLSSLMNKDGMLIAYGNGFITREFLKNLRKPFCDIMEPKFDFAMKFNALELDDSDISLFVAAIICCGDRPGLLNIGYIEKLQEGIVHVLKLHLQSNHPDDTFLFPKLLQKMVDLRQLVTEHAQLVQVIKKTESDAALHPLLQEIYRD
UniProt P35396, 210-438 limits assumed: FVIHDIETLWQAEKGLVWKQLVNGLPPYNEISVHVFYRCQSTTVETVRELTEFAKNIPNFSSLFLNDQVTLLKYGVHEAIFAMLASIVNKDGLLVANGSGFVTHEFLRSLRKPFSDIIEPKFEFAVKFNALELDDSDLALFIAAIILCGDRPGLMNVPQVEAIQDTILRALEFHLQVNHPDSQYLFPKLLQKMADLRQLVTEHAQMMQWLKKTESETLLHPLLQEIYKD
UniProt P37238, 238-503 limits assumed: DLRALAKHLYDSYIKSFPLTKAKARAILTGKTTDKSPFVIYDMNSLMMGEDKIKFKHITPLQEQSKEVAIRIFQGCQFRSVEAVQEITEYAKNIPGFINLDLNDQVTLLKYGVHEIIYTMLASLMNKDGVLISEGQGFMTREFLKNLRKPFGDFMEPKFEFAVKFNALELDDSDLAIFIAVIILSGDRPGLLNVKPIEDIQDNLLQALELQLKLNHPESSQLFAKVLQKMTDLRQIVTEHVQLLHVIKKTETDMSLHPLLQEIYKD

mouse PPAR δ = mouse PPAR δ (Mus musculus, UniProt P35396); assay: PPAR δ transactivation (GAL4 chimeric receptor luciferase reporter) assay; settings: read-out: Gene Activation Assay: EC50 (≦10 μM) PPAR delta; GAL4-mPPAR δ chimeric receptor, pFR-Luc reporter, HEK293T cells, 20 hours incubation
Source text: as §1

mouse PPARγ = mouse PPARγ (Mus musculus, UniProt P37238); assay: PPARγ transactivation (GAL4 chimeric receptor luciferase reporter) assay; settings: read-out: Gene Activation Assay: EC50 (≦10 μM) PPAR gamma; GAL4-mPPARγ chimeric receptor, pFR-Luc reporter, HEK293T cells, 20 hours incubation
Source text: as §1

- EC50 (mouse PPAR α): < 10 µM
- EC50 (mouse PPAR δ): < 10 µM
- EC50 (mouse PPARγ): < 10 µM
SMILES: O=C(O)Cc1ccc(OCCCOc2ccc(Cl)cc2-n2nc3ccccc3n2)c(Cl)c1
